Screening results (PubChem BioAssay)
ERp5 block = inhibitors of ERp5-driven insulin aggregation, primary screen, biochemical, turbidity, absorbance 650 nm, single point; 350,000 tested, 0.05% active; Protein disulfide-isomerase A6 (Homo sapiens), Q15084; inhibition, % at 9.99 µM; 90 min;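 active = mean replicate inhibition above about 25%, with every replicate also reaching it, limit read from the data, passing the limit was not always enough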
PDI turbidity = inhibitors of human PDI, primary screen, biochemical, turbidity, single point, plate reader | PDI insulin aggregation turbidity, A650, 90 min | Protein disulfide-isomerase (Homo sapiens), P07237 | inhibition, % at 10 µM | 350,000 tested, 0.052% active | AID 588391, 2011;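 active = mean inhibition across replicates of 30% or more, whatever share of single replicates reach that level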
Yeast UUG start = alters start codon recognition fidelity in yeast; S. cerevisiae UUG-firefly luciferase reporter, luminescence/redox ratio; activity score, % at 18.7 µM; hit rate 0.13% among 350,000;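 active = replicate mean at a twofold rise or more, about +100% in these data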;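 also: firefly luciferase made from a UUG start codon reports start codon fidelity; reporter light over untreated wells divided by growth signal over untreated wells; some hits fall short of that in this replicate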
Cneo AK release = Cryptococcus neoformans cell lysis inducers, primary screen, AK release luminescence, single concentration; AID 651654, 2012; C. neoformans lysis, adenylate kinase release luminescence, 4 h; normalised: neutral wells 0, clomiphene wells 100; lysis activity, % at 15 µM; 360,000 tested, 0.2% active;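 active = mean lysis activity across replicates of at least 80%, whatever share of replicates individually reach that level; inactive = mean lysis activity below 80%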
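Material: C. neoformans cells | Amount: Yeast cell density of 5 × 10^6 cells/mL | Medium: Fresh YPD growth medium | Dosing: Single dose | Times: Static 4 h at 37 °C with compound, 1 h detection | Detection: AK luminescence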
Numbers stand for hits; i = inactive; nt = no result given; ! = not confirmed by another sample. This is a sample that favours compounds with a hit; in the whole collection about 0.34% have one here.

Amino acid sequences for entries named in this document (tags omitted).
Protein disulfide-isomerase A6 (Homo sapiens), Q15084, UniProt Q15084, whole entry, looked up: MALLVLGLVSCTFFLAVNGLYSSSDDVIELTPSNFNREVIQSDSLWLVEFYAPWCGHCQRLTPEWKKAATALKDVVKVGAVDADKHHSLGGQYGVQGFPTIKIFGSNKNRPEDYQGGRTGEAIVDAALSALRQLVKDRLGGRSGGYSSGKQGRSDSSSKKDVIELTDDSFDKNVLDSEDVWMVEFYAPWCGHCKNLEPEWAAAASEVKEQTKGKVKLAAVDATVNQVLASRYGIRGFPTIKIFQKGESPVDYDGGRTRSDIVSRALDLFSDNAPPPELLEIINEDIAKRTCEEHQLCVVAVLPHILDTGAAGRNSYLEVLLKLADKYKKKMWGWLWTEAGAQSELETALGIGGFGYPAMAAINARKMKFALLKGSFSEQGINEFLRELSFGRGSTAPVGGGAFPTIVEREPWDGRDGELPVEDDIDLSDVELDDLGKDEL
Protein disulfide-isomerase (Homo sapiens), P07237, UniProt P07237, whole entry, looked up: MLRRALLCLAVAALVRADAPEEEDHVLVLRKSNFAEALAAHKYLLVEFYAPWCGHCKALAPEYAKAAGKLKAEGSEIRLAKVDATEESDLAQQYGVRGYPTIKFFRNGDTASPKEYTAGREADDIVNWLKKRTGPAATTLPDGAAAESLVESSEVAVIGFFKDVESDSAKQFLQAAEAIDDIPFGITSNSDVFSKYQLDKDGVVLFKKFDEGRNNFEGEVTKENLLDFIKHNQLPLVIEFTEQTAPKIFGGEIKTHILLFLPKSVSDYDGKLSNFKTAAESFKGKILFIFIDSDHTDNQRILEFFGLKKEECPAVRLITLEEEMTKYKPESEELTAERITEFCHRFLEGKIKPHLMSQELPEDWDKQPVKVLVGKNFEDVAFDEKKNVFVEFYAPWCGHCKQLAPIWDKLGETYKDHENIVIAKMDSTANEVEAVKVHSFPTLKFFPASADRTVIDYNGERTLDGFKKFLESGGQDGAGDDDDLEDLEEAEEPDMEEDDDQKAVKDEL

SMILES	ERp5 block	PDI turbidity	Yeast UUG start	Cneo AK release
COCC#Cc1ccc(CC[C@H]2O[C@H]3CC[C@H](CO)O[C@H]3C[C@@H]2n2cc(C(C)(C)O)nn2)cc1	i	nt	nt	nt
C[C@@H]1CN([C@@H](C)CO)C(=O)c2cc(NC(=O)CCCCCC(=O)Nc3ccccc3N)ccc2O[C@@H]1CN(C)C	i	nt	nt	nt
CCCC#Cc1ccc2c(c1)O[C@@H](CN(C)C)[C@H](C)CN([C@H](C)CO)S2(=O)=O	i	nt	i	i
CC(=O)N1[C@@H](CO)[C@H](c2ccc(-c3ccccc3)cc2)[C@@H]1CNC(=O)C1CC1	nt	nt	i	95.1
CC(=O)NC[C@H]1[C@@H](c2ccc(C3=CCCC3)cc2)[C@@H](CO)N1C(=O)NC(C)C	nt	nt	i	119.7
CCCNC(=O)N1[C@H](CO)[C@@H](c2ccc(C3=CCCC3)cc2)[C@@H]1CN(C)C(C)=O	nt	nt	i	87.3
CC(=O)NC[C@@H]1[C@@H](c2ccc(C3=CCCC3)cc2)[C@H](CO)N1C(=O)NC(C)C	i	nt	i	i
CCCNC(=O)N1[C@H](CO)[C@@H](c2ccc(C3=CCCC3)cc2)[C@H]1CNC(C)=O	nt	nt	i	i
Cc1noc(C)c1NC(=O)Nc1ccc2c(c1)C(=O)N([C@H](C)CO)C[C@@H](C)[C@@H](CN(C)C(=O)Nc1ccc(F)cc1)O2	50.7	nt	i	i
Cc1noc(C)c1NC(=O)N(C)C[C@H]1Oc2ccc(NC(=O)c3ccncc3)cc2C(=O)N([C@H](C)CO)C[C@@H]1C	27.6!	i	i	i
Cc1noc(C)c1NC(=O)Nc1ccc2c(c1)C(=O)N([C@H](C)CO)C[C@H](C)[C@H](CN(C)C(=O)Nc1ccc(F)cc1)O2	i	nt	i	i
O=C(NN=c1c(=O)c2ccccc2c1=O)c1ccccc1	32.5	i	i	i
CN(C)/C=N/NC(=O)c1ccccc1	i	i	i	i
O=C(C1CCOCC1)N1C[C@H]2[C@@H](c3ccccc31)[C@@H](CO)N2Cc1ccccc1Cl	i	nt	i	100.0
COc1ccc(CN(C)C[C@@H]2Oc3c(NC(=O)NC(C)C)cccc3C(=O)N([C@@H](C)CO)C[C@@H]2C)cc1	i	nt	i	i
C[C@H](NC(=O)C[C@@H]1C=C[C@H](NC(=O)CN2CCOCC2)[C@@H](CO)O1)c1ccccc1	i	nt	i	91.4
C#CCOCCOCCOCCNc1nc(N2CCN(C(=O)[C@H](CCC(=O)O)n3cc(C(N)CO)nn3)CC2)nc(N2CCN(C(=O)[C@H](Cc3cc4ccccc4[nH]3)n3cc(C(N)[C@H](C)CC)nn3)CC2)n1 (stereo partly specified)	nt	i	i	i
C#CCOCCOCCOCCNc1nc(N2CCN(C(=O)[C@H](CCCCN)n3cc([C@@H](N)C(C)CC)nn3)CC2)nc(N2CCN(C(=O)[C@H](Cc3cc4ccccc4[nH]3)n3cc([C@@H](N)CC(C)C)nn3)CC2)n1 (stereo partly specified)	nt	43.5	i	i
C[C@@H]1CN([C@H](C)CO)C(=O)c2cc(NC(=O)C3CCCCC3)ccc2O[C@@H]1CN(C)Cc1ccc(Oc2ccccc2)cc1	nt	nt	i	nt
CC(C)c1ccccc1NC(=S)NN(Cc1ccccc1)c1ccccc1	nt	i	i	230.6
CN1CCCCN2[C@H](CO)[C@@H](c3ccc(C#Cc4ccccc4F)cc3)[C@H]2C1	i	nt	i	i
C[C@@H]1CN([C@H](C)CO)C(=O)Cc2cc(NC(=O)Cc3ccccc3)ccc2O[C@@H]1CN(C)S(=O)(=O)c1cccs1	i	nt	i	i
Cc1ccccc1NC(=O)COC(=O)CCc1nc2ccccc2c(=O)[nH]1	i	i	i	i
O=C(COC(=O)CCc1nc2ccccc2c(=O)[nH]1)Nc1c(Cl)cccc1C(F)(F)F	26.2	i	nt	nt
O=S(=O)(NC[C@@H]1[C@@H](c2ccccc2)[C@H](CO)N1CC1CC1)c1ccccc1	i	nt	i	107.2
SMILES	ERp5 block	PDI turbidity	Yeast UUG start	Cneo AK release
Cc1ccc(S(=O)(=O)N(C)C[C@@H]2Oc3ccc(NS(=O)(=O)c4ccc(Cl)cc4)cc3CC(=O)N([C@H](C)CO)C[C@H]2C)cc1	i	nt	i	i
Cc1ccc(S(=O)(=O)N(C)C[C@@H]2Oc3ccc(NS(=O)(=O)c4ccc(Cl)cc4)cc3CC(=O)N([C@@H](C)CO)C[C@@H]2C)cc1	i	nt	i	100.0
C[C@H]1CN([C@@H](C)CO)C(=O)Cc2cc(NS(=O)(=O)c3ccc(F)cc3)ccc2O[C@H]1CN(C)S(=O)(=O)c1ccc(F)cc1	i	nt	i	100.2
Cc1cnc(NC2=NCCC2)s1	i	38.3	nt	nt
CCCNC(=O)N1[C@H](C#N)[C@H](c2ccccc2-c2cccc(OC)c2)[C@@H]1CO	i	nt	nt	nt
C[C@@H]1O[C@@H](OC[C@@H]2O[C@H](Oc3c(-c4ccc(O)cc4)oc4cc(O)cc(O)c4c3=O)[C@@H](O)[C@H](O)[C@H]2O)[C@H](O)[C@H](O)[C@H]1O	i	65.3	i	i
CC1OC(Oc2c(-c3cc(O)c(O)c(O)c3)oc3cc(O)cc(O)c3c2=O)C(O)C(O)C1O (stereo unspecified)	i	nt	i	i
C[C@@H]1O[C@@H](O[C@H]2[C@H](O)[C@@H](O)[C@H](Oc3c(-c4ccc(O)cc4)oc4cc(O)cc(O)c4c3=O)O[C@@H]2CO)[C@H](O)[C@H](O)[C@H]1O	i	54.9	i	i
CC(C)=CCc1c(O)cc(O)c2c(=O)c(O[C@@H]3O[C@@H](C)[C@H](O)[C@@H](O)[C@H]3O)c(-c3ccc(O)cc3)oc12	nt	nt	i	i
CCCNC(=O)Nc1ccc2c(c1)C(=O)N(C)C[C@@H](OC)[C@@H](C)CN(C(=O)c1ccccc1F)[C@@H](C)CO2	i	nt	nt	i
CC(=O)N[C@@H]1CC[C@@H](CCNC(=O)C2CCC2)O[C@H]1CO	i	nt	i	i
Cc1ccc(S(=O)(=O)N[C@H]2CC[C@H](CCNC(=O)C3CCCC3)O[C@@H]2CO)cc1	i	nt	i	95.4
CC(=O)N[C@H]1CC[C@H](CCNC(=O)C2CCC2)O[C@@H]1CO	i	nt	i	101.0
O=C(CN1CCOCC1)N[C@@H]1CC[C@@H](CCNC(=O)C2CCC2)O[C@@H]1CO	i	nt	nt	97.5
Cc1ccc(S(=O)(=O)N[C@H]2CC[C@@H](CCNC(=O)C3CCCC3)O[C@H]2CO)cc1	i	nt	i	i
O=C(NCC[C@H]1CC[C@H](NS(=O)(=O)c2ccc(F)cc2)[C@@H](CO)O1)c1ccc2c(c1)OCO2	i	nt	i	101.5
O=C(CN1CCOCC1)N[C@@H]1CC[C@@H](CCNC(=O)C2CCC2)O[C@H]1CO	i	nt	nt	i
O=C(CCN1CCCCC1)NCC[C@H]1CC[C@H](NC(=O)c2ccc(F)cc2)[C@H](CO)O1	i	nt	i	i
O=C(CCN1CCCCC1)NCC[C@@H]1CC[C@H](NC(=O)c2ccc(F)cc2)[C@@H](CO)O1	i	nt	i	85.6
C[C@@H]1CN([C@@H](C)CO)C(=O)c2cc(C#C[C@@H](C)O)cnc2O[C@H]1CN(C)CC1CCCCC1	nt	nt	i	i
O=C([C@H]1[C@H](CO)[C@H]2Cn3c(cccc3=O)[C@H]2N1CCC(F)(F)F)N1CCCCC1	i	nt	nt	92.5
